Data as given in US20220168325A1, “METHODS TO PROMOTE CEREBRAL BLOOD FLOW IN THE BRAIN” (THE UNIVERSITY OF VERMONT, priority 2019, published 2022).

Protein sequences, listed by entry. Tags and fused reporters are not part of them. Lines headed by an entry give the natural chain unless they say otherwise; changes in a name come on top.
UniProt P35561: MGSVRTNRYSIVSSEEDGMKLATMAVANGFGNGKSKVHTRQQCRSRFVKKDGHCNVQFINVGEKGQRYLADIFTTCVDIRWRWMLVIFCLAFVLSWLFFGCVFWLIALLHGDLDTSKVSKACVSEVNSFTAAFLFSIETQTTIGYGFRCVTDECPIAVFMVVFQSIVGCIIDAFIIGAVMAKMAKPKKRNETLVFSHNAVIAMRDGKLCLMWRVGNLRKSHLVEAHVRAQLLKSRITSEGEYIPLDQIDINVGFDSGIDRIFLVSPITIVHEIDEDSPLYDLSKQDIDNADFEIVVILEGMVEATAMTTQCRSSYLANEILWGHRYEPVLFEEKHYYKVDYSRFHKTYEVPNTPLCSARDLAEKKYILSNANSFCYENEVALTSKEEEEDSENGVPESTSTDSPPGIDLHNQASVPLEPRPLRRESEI

Biological target: Kir2.1 channels (Mus musculus, UniProt P35561)
Assay: Patch-clamp recording of Kir2.1 currents in freshly isolated brain capillary endothelial cells (cECs)
Conditions: perforated-patch (intact cytoplasm); PIK93 300 nM, phenylarsine oxide 10 μM, UNC3230 100 nM, bath-applied

O=[As]c1ccccc1 (stereo not shown)
Kir2.1 currents 15 min after PIP2 synthesis inhibitor: significantly suppressed Kir2.1 currents
